This note sets out measurements from ChEMBL document CHEMBL1926580, “Identification and development of 2,5-disubstituted oxadiazole as potential candidate for treatment of XDR and MDR tuberculosis” (2012).

Bounds are passed on as bounds.

As a reminder, the CC50 is the concentration at which the toxic effect on the cells reaches its halfway point.

Experiment [1] has as its system BHK-21. Briefly: Cytotoxicity against hamster BHK21 cells after 5 days. It is filed as functional. The note with it: Mesocricetus auratus. In a few lines:
(§1)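 HepG2 and BHK21 cells were seeded, incubated 24 h at 37 °C, then exposed to twofold serial dilutions of compound. The value is CC50 (50% cytotoxic concentration), from at least two independent assays.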

Experiment [2] relates to HepG2. Kind of experiment: Cytotoxicity against human HepG2 cells after 5 days. The class given is functional. In a few lines:
as §1

For `O=[N+]([O-])c1cccc(Cc2nnc(SCCCl)o2)c1`, the CC50 in experiment [1] worked out at 19.7 µM; in experiment [2] it was 14.7 µM.

Consider `O=[N+]([O-])c1cccc(OCc2nnc(SCCCl)o2)c1`, for which the CC50 in experiment [1] was 17.7 µM; in experiment [2], 11.3 µM.

`ClCCSc1nnc(Cc2ccc(Cl)cc2Cl)o1`: the CC50 in experiment [1] and in experiment [2] was greater than 50 µM throughout.

Regarding `ClCCSc1nnc(COc2ccc(Cl)cc2Cl)o1`, the results for the CC50 in experiment [1] and in experiment [2] were 3.75 µM and 4.5 µM, respectively.
